These results are taken from patent US5278150A, “2-hydrazoadenosines and their utility for the treatmeat of vascular conditions” (Whitby Research, Inc., priority 1992, dated 1994).

Amino acid sequences for entries named in this document (tags omitted).
UniProt P47745, whole entry: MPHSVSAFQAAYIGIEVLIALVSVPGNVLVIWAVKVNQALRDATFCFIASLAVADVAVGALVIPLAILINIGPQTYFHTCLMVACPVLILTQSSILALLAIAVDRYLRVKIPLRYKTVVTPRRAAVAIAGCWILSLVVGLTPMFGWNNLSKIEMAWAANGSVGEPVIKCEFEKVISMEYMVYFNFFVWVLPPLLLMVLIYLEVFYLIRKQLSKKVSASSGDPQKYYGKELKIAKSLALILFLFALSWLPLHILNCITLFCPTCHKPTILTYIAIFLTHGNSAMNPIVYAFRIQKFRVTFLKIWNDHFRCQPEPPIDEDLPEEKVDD

One test deals with A2 adenosine receptor. The following applies: coronary arteries vs atrioventricular node; cited from earlier work.
In a further test the target is A1 adenosine receptor (Cavia porcellus, UniProt P47745). The conditions noted are these: -LOG EC50 A1, BIOASSAY RESULTS table.

`Nc1nc(OCCC2CCCCC2)nc2c1ncn2[C@@H]1O[C@H](CO)[C@@H](O)[C@H]1O` [2-(2-cyclohexylethoxy)adenosine]: the “selectivity for the A2 receptor” value with A2 adenosine receptor is listed as 8700 fold. The term EC50 denotes the midpoint of the concentration-response curve. A low value points to an effect from little substance. In the case of `COc1ccc(C=NNc2nc(N)c3ncn([C@@H]4O[C@H](CO)[C@@H](O)[C@H]4O)c3n2)cc1` [Example 11, 6-amino-2-{2-[(4-methoxyphenyl)methylene]diazanyl}-9-(β-D-ribofuranosyl)-9H-purine], the EC50 at A1 adenosine receptor is 22.9 µM.
